Earlier results as cited in patent US20070043110A1, “Nontoxic potentiation sensitization of ovarian cancer therapy by supplementary treatment with vitamins” (Summa Health System, priority 2001, published 2007).
Like-named read-outs stand apart in the source and are kept apart here.

Legend:
[1] = tested on: human oral epidermoid carcinoma (KB) cell cultures; details: cited from earlier work
[2] = tested on: nasopharyngeal carcinoma cells; details: with doxorubicin, 5-FU, and vinblastine; cited from earlier work
[3] = tested on: MCF-7 breast cancer cells; details: with doxorubicin or mitomycin, VK3 pretreatment; cited from earlier work

In the case of `CC1=CC(=O)c2ccccc2C1=O` [Vitamin K3, 2-Methyl-1,4-Naphthoquinone], the “interaction with chemotherapeutic agents” value ([1]; with actinomycin D, cytarabine, doxorubicin, hydroxyurea, mercaptopurine, mitomycin C, mitoxantrone, thiotepa, vincristine and VP-16) is listed as “additive effect”, the “interaction with chemotherapeutic agents” value ([1]; with bleomycin, cisplatin, dicarbazine and 5-fluorouracil) is listed as “synergism” and the “interaction with chemotherapeutic agents” value [2] is listed as “Synergistic activity”. For the same compound, the “interaction with chemotherapeutic agents” value [3] was “Synergistic activity”.
